Reference: patent US7737182B2, “Pharmaceuticals for xerosis” (Taisho Pharmaceutical Co., Ltd., priority 2001, dated 2010)

The chains behind the UniProt entries cited, without tags or fusion partners.
UniProt P21731, whole entry: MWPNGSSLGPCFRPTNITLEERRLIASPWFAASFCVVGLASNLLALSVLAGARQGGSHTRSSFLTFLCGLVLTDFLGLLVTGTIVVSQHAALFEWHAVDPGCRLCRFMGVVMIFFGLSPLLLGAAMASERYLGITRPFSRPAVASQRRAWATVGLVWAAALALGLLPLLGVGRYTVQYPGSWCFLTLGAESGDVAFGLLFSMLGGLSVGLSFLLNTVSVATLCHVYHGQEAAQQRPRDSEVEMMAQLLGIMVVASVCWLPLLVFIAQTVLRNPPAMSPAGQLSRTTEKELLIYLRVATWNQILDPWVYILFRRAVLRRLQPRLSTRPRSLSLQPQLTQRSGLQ

Biological target: thromboxane (TP) receptor (Homo sapiens, UniProt P21731)
Assay: Human TP antagonistic action: [3H]SQ29548 binding to human washed platelets
Conditions: read-out: IC50, [3H]SQ29548 binding
Experimental: (C) The effect of the active ingredient of the present invention (compound No. 7) on a thromboxane (TP) receptor was measured as compared with the thromboxane agonist U44069 as a positive control drug.
The antagonistic action of the test drug on the [^3H]SQ29548 binding to human washed platelets was investigated on the basis of a documented method (J. Pharmacol. Exp. Ther., vol. 245, pp. 786-792, 1988).

IC50: 2400 nM
SMILES: CCCCC[C@H](O)/C=C/[C@H]1[C@@H]2CO[C@@H](C2)[C@@H]1C/C=C\CCCC(=O)O
